The values that follow are results of earlier work, collected in patent publication US8524201B2, “Non-cytotoxic chlorine dioxide fluids” (BASF Corporation, priority 2008, dated 2013).

For this data set the following is noted: background statement.

Regarding chlorous acid, the “pKa for the chlorite ion/chlorous acid equilibrium” value was 1.8.
